Values of other authors, collected in patent US20150030685A1.

Columns and labels:
[1] = 25° C. up to 80% relative humidity

| Substance | Solubility in water (g/100g) (25° C.) | Solubility in water (g/100g) (40° C.) | Hygroscopicity [1] |
| --- | --- | --- | --- |
| Maltitol | 63 | 72 |  |
| Isomalt |  |  | low hygroscopicity |

Like-named read-outs stand apart in the source and are kept apart here.
